From patent publication US20200109126A1 (priority 2017, published 2020)
pKi: −log10 of the molar value.

Amino acid sequences for entries named in this document (tags omitted).
UniProt P41143, whole entry: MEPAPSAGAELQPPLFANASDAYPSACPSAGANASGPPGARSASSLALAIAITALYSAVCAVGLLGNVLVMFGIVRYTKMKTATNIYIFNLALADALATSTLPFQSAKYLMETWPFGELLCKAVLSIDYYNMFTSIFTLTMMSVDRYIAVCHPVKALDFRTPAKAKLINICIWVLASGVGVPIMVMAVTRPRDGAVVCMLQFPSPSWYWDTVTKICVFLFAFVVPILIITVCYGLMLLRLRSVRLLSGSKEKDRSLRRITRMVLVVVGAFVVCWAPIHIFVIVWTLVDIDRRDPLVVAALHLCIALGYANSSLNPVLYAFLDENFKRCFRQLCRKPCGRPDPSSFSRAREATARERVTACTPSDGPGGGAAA

Biological target: humanDOR (Homo sapiens, UniProt P41143)
Test: Receptor binding with [3H]diprenorphine at human DOR
Settings: binding affinity Ki hDOR

Q: C[C@@H](NC(=O)[C@@H](N)Cc1ccc(O)cc1)C(=O)NCC(=O)N(C)[C@@H](Cc1ccccc1)C(=O)NCCO [drawing 485] was tested. Which pKi did it give?
A: The pKi was 6.01.
